Cyclic peptide permeability, from CycPeptMPDB

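The data file gives no further conditions (lipid, pH, time, direction or concentration), and values from different papers need not be comparable. Other peptides of the study may be missing here. Peptides that the database sets to -10, its floor, are left out.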

PAMPA measures passive passage through an artificial lipid membrane. Values are log10 P with P in cm/s, so -5 is more permeable than -7.

| compound | PAMPA (log10 cm/s) |
|---|---|
| CC(=O)N1CCC[C@H]1C(=O)N(C)[C@H](CC(C)C)C(=O)N[C@@H]1C(=O)N[C@H](CC(C)C)C(=O)N(C)[C@@H](CC(C)C)C(=O)N[C@H](CC(C)C)C(=O)N[C@@H](C)C(=O)N[C@H](CC(C)C)C(=O)N2CCC[C@H]2C(=O)O[C@@H]1C | -6.15 |
| CC(=O)N1CCC[C@@H]1C(=O)N(C)[C@@H](CC(C)C)C(=O)N[C@@H]1C(=O)N[C@@H](CC(C)C)C(=O)N[C@H](CC(C)C)C(=O)N[C@H](CC(C)C)C(=O)N[C@H](C)C(=O)N[C@@H](CC(C)C)C(=O)N2CCC[C@@H]2C(=O)O[C@@H]1C | -6.36 |
| CC(=O)N1CCC[C@@H]1C(=O)N(C)[C@@H](CC(C)C)C(=O)N[C@@H]1C(=O)N[C@H](CC(C)C)C(=O)N[C@H](CC(C)C)C(=O)N[C@H](CC(C)C)C(=O)N[C@H](C)C(=O)N[C@@H](CC(C)C)C(=O)N2CCC[C@@H]2C(=O)O[C@@H]1C | -6.71 |
| CC(=O)N1CCC[C@@H]1C(=O)N(C)[C@H](CC(C)C)C(=O)N[C@@H]1C(=O)N[C@H](CC(C)C)C(=O)N[C@H](CC(C)C)C(=O)N[C@H](CC(C)C)C(=O)N[C@@H](C)C(=O)N[C@H](CC(C)C)C(=O)N2CCC[C@@H]2C(=O)O[C@@H]1C | -7.44 |
| CC(=O)N1CCC[C@@H]1C(=O)N(C)[C@H](CC(C)C)C(=O)N[C@@H]1C(=O)N[C@@H](CC(C)C)C(=O)N[C@H](CC(C)C)C(=O)N(C)[C@H](CC(C)C)C(=O)N[C@@H](C)C(=O)N[C@@H](CC(C)C)C(=O)N2CCC[C@H]2C(=O)O[C@@H]1C | -7.59 |
| CC(=O)N1CCC[C@H]1C(=O)N(C)[C@@H](CC(C)C)C(=O)N[C@@H]1C(=O)N(C)[C@@H](CC(C)C)C(=O)N(C)[C@H](CC(C)C)C(=O)N(C)[C@@H](CC(C)C)C(=O)N[C@@H](C)C(=O)N[C@H](CC(C)C)C(=O)N2CCC[C@H]2C(=O)O[C@@H]1C | -5.78 |
| CC(=O)N1CCC[C@@H]1C(=O)N(C)[C@H](CC(C)C)C(=O)N[C@@H]1C(=O)N[C@@H](CC(C)C)C(=O)N[C@H](CC(C)C)C(=O)N[C@H](CC(C)C)C(=O)N[C@@H](C)C(=O)N[C@@H](CC(C)C)C(=O)N2CCC[C@H]2C(=O)O[C@@H]1C | -7.49 |
| CC(=O)N1CCC[C@H]1C(=O)N(C)[C@H](CC(C)C)C(=O)N[C@@H]1C(=O)N[C@H](CC(C)C)C(=O)N[C@@H](CC(C)C)C(=O)N[C@@H](CC(C)C)C(=O)N[C@@H](C)C(=O)N[C@H](CC(C)C)C(=O)N2CCC[C@H]2C(=O)O[C@@H]1C | -6.58 |
| CC(=O)N1CCC[C@H]1C(=O)N(C)[C@@H](CC(C)C)C(=O)N[C@@H]1C(=O)N(C)[C@@H](CC(C)C)C(=O)N(C)[C@@H](CC(C)C)C(=O)N[C@@H](CC(C)C)C(=O)N(C)[C@@H](C)C(=O)N[C@H](CC(C)C)C(=O)N2CCC[C@@H]2C(=O)O[C@@H]1C | -5.68 |
| CC(=O)N1CCC[C@@H]1C(=O)N(C)[C@H](CC(C)C)C(=O)N[C@@H]1C(=O)N(C)[C@@H](CC(C)C)C(=O)N[C@@H](CC(C)C)C(=O)N[C@@H](CC(C)C)C(=O)N[C@H](C)C(=O)N[C@H](CC(C)C)C(=O)N2CCC[C@H]2C(=O)O[C@@H]1C | -6.48 |
| CC(=O)N1CCC[C@@H]1C(=O)N(C)[C@H](CC(C)C)C(=O)N[C@@H]1C(=O)N[C@H](CC(C)C)C(=O)N(C)[C@H](CC(C)C)C(=O)N[C@H](CC(C)C)C(=O)N(C)[C@H](C)C(=O)N[C@@H](CC(C)C)C(=O)N2CCC[C@H]2C(=O)O[C@@H]1C | -6.19 |
| CC(=O)N1CCC[C@@H]1C(=O)N(C)[C@@H](CC(C)C)C(=O)N[C@@H]1C(=O)N(C)[C@H](CC(C)C)C(=O)N[C@@H](CC(C)C)C(=O)N[C@H](CC(C)C)C(=O)N(C)[C@H](C)C(=O)N[C@H](CC(C)C)C(=O)N2CCC[C@H]2C(=O)O[C@@H]1C | -5.90 |

Extract of 2 entries:

compound	PAMPA (log10 cm/s)
CC(=O)N1CCC[C@@H]1C(=O)N(C)[C@@H](CC(C)C)C(=O)N[C@@H]1C(=O)N[C@@H](CC(C)C)C(=O)N[C@H](CC(C)C)C(=O)N[C@H](CC(C)C)C(=O)N[C@H](C)C(=O)N[C@@H](CC(C)C)C(=O)N2CCC[C@@H]2C(=O)O[C@@H]1C	-6.36
CC(=O)N1CCC[C@@H]1C(=O)N(C)[C@H](CC(C)C)C(=O)N[C@@H]1C(=O)N[C@H](CC(C)C)C(=O)N(C)[C@H](CC(C)C)C(=O)N[C@H](CC(C)C)C(=O)N(C)[C@H](C)C(=O)N[C@@H](CC(C)C)C(=O)N2CCC[C@H]2C(=O)O[C@@H]1C	-6.19

Data: CycPeptMPDB; original report Kelly et al. 2021, doi:10.1021/jacs.0c06115.